# Ab-14 heavy chain CDR variants: yeast mating affinities

Binding partner: SARS-CoV-2 spike HR2 peptide, sequence PDVDLGDISGINAS.

Parent scFv Ab-14: VH joined to VL by a 15-residue (Gly4Ser)3 linker. Changes lie in the heavy chain CDRs alone.
VH: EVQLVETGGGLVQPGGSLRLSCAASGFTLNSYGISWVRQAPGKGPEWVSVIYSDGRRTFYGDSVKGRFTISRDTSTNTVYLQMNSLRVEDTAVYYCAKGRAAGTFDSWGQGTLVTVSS
VL: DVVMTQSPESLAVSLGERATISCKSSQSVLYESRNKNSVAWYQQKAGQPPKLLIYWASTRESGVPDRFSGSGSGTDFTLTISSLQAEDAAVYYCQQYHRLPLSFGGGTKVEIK

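Phage display of a naive human antibody library on the peptide gave the parent. Variants in AAYL49 differ from the parent at up to three CDR positions; double and triple changes were sampled at random. The assay is AlphaSeq: two haploid yeast populations carry antibody and antigen on their surface. Mating (16 h, 30 °C) was followed by selection of diploids and sequencing of their barcodes. The ratio of observed to expected reads was calibrated, replicate by replicate, on BCL2-family standards whose Kd was known from biolayer interferometry. Mating was done three times.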

The parent's heavy chain CDRs are GFTLNSYGIS, VIYSDGRRTFYGDSVK, GRAAGTFDS; each variant's own CDRs replace them letter for letter.
This list gathers variants with a substitution at D106 (VH, numbered from residue 1).
Affinities are written as log10 Kd with Kd in nM; a lower number is a better binder.
Replicates are averaged; those with no signal do not enter the mean.
Where no diploid with the target was found in any replicate, the entry reads "no signal": below detection, most likely a poor binder, though not proof of it.
Nonspecific signal, from three strains lacking the peptide, appeared in 15% of pairings of library AAYL49, centred on 4.06 (5% of these signals below 2.83); values are not corrected for it. Also given: how often the same scFv was detected with the empty control strains.
Parent in this assay: reference entry 0.65, copy in this library 4.11 (one replicate of three).

CDR-H1	CDR-H2	CDR-H3	mean log10 Kd (nM)	seen in	control signals
GFTLNSYTIS	VIYSDGRRTYYGDSVK	GRAAGTFES	3.56	1 of 3	1 of 9
GFTLNSYGIS	VIYSDGRTTFYGDSVK	GRAAITFES	no signal	0 of 3	1 of 9
GFFLNSYGIS	VIYSDGRRTMYGDSVK	GRAAGTFCS	4.52	3 of 3	7 of 9
GFTLNSYGHS	VIYSDGRRTFYGDSVK	GQAAGTFCS	4.42	2 of 3	4 of 9
GFTLNSYGIS	VIYSDGRRTFYGDSVC	GRAAGHFGS	no signal	0 of 3	0 of 9
GFTLNSYGIS	VHYSDGRRTFYGDSVK	GRAAGTEYS	4.65	1 of 3	1 of 9
GFTLNSYGIS	VIYSDGRRTFYGDMVK	GRAAGTFAS	1.46	3 of 3	1 of 9
GFTLNSYHIS	VIYSDGRRTFYGDSVP	GRAAGTFRS	no signal	0 of 3	0 of 9
GFTLNSKGIS	VIYSDGRRTFYGDSVK	GRAAGTFMV	no signal	0 of 3	3 of 9
GFTLNSYGIS	VIYIDGRRTFYGDSLK	GRAAGTFMS	4.78	1 of 3	1 of 9
GFTLNSYGIS	VIYSDGRRTFYGDSVK	GRAAGTFKS	1.05	3 of 3	0 of 9
GFTLNSYGIS	VIYSDGRRTFYWDSVK	GRAAGTFES	3.89	3 of 3	1 of 9
GFTLNSYGIS	VIYSDGRRTFLGDSVK	GRAAGTFSS	4.35	3 of 3	3 of 9
GFTLNSYGIS	VIYSDGRRTFYGDSVK	GRAAGTPPS	0.83	3 of 3	4 of 9
GFTLNSYGIS	VIYSDGRRTFYGDSVK	GRAAGTFTS	1.28	3 of 3	0 of 9
GFTLNSYGAS	VIYSDGRRTFYMDSVK	GRAAGTFIS	no signal	0 of 3	1 of 9
GFSLNSYGIS	VIYSDGRRTFYGDSVM	GRAAGTFFS	1.20	3 of 3	2 of 9
GFTLNSYGIS	VIYFRGRRTFYGDSVK	GRAAGTFYS	no signal	0 of 3	1 of 9
GFTLNSYGIS	FIYSDGRRTFYGDSVK	NRAAGTFYS	4.03	2 of 3	5 of 9
FFTLNSYGIS	VIYSDGRRTFYGDSVK	GRAAGTFMS	no signal	0 of 3	1 of 9
GFTLNSYGIS	VIYCDGRRTFYGDSVK	GSAAGTFYS	5.48	1 of 3	2 of 9
GFTLNSYGIS	VIYSDGRRTFYGDMVK	GVAAGTFSS	2.83	3 of 3	2 of 9
GFTMNSYGIS	VIYSDGRETFYGDSVK	GRAAGTFMS	3.95	1 of 3	3 of 9
GFTLNSYGIS	VISSDGRRTFYGDSVK	GRAAGTFTS	5.19	1 of 3	3 of 9
GFTLNSYGIS	VIYSDGRYTFSGDSVK	GRAAGTFES	5.77	1 of 3	2 of 9
GFTLNSYGIS	VIYSDGRRTFYGDLVK	GRAARTFHS	2.66	3 of 3	1 of 9
GFTLNSYGIS	VIYSDGRRTFYGDSVK	GTAAGTFCS	no signal	0 of 3	0 of 9
GFTAESYGIS	VIYSDGRRTFYGDSVK	GRAAGTFES	3.21	1 of 3	0 of 9
GFTLNSYGIS	VIYSDGRRCFYGDKVK	GRAAGTFQS	4.29	1 of 3	0 of 9
IFWLNSYGIS	VIYSDGRRTFYGDSVK	GRAAGTFHS	3.71	1 of 3	0 of 9
GFTLSSYGIL	VIYSDGRRTFYGDSVK	GRAAGTFCS	no signal	0 of 3	1 of 9
GFTLNSYGIE	VIYSDGRRTFYGDSVK	GRAAGTFTS	no signal	0 of 3	0 of 9
GFTLNSYGIF	VIYSDGRRTFYGDSVK	GRAAGKFGS	no signal	0 of 3	1 of 9
GFTLNSYGIS	VIYSYGRRTFYGDSVK	GRAKGTFQS	5.01	2 of 3	2 of 9
GITLNSYGIS	VIYSDGRRTFYGDSVK	GRWAGTFWS	no signal	0 of 3	2 of 9
GFTLNSYGWS	VIYSDGRRTAYGDSVK	GRAAGTFMS	no signal	0 of 3	0 of 9
GFTVNSLGIS	VIYSDGRRTFYGDSVK	GRAAGTFMS	4.95	1 of 3	1 of 9
GFTLNSYGIS	VIYSDGRRTFYRDSDK	GRAAGTFSS	no signal	0 of 3	0 of 9
GFTLNSYGIS	VVYSDGRRTFYGCSVK	GRAAGTFSS	no signal	0 of 3	3 of 9
GFTLNSYGSS	VIYSDGIRTFYGDSVK	GRAAGTFMS	no signal	0 of 3	1 of 9
GFTLNSVGIS	VIYSDGRRTVYGDSVK	GRAAGTFMS	4.88	1 of 3	1 of 9
GFTLNSYGIS	VIYNDGRMTFYGDSVK	GRAAGTFLS	no signal	0 of 3	1 of 9
GFTLNSYGIS	VIYSDGRRTFYGDSNK	GRAAGRFTS	5.43	1 of 3	1 of 9
GFTLNSYGIS	VIYSDSRRTFYGDSVK	GRAAGTFLS	no signal	0 of 3	0 of 9
GFTLNSYGIS	VIYSDGRRTFYGTSVK	GRAAGWFNS	no signal	0 of 3	1 of 9
GFTLNSYGIS	VIYSDHRRTFYGDSVK	GRVAGTFGS	no signal	0 of 3	1 of 9
GFTLNSYGIS	VIYSDGRLTFYGDSVK	GRAAGTFSC	no signal	0 of 3	0 of 9
GFTLNSYGIS	VIYSDGKRTFYGDSGK	GRAAGTFES	no signal	0 of 3	0 of 9
GFTLNSYGIS	VIPSDGRRTFYGDSVK	GRDAGTFIS	no signal	0 of 3	4 of 9
GFTLNAYGIS	VIYSDGRRTFYGKSVK	GRAAGTFCS	1.54	3 of 3	0 of 9
GFTDNSYGIS	VIYSVGRRTFYGDSVK	GRAAGTFSS	no signal	0 of 3	1 of 9
GFTLNSYGIS	VIYSDGGRTFYGDSVK	GRAAGTFAI	no signal	0 of 3	1 of 9
GFTLNSYGIS	VIYSDGRRTFYGYSVK	GRDAGTFTS	no signal	0 of 3	2 of 9
GFTLNSYGIS	VIYHDGRRTFYGDSVK	GRAAGTFKQ	no signal	0 of 3	1 of 9
GFTLNSYGIS	VIYSYGRRTFYGDSGK	GRAAGTFLS	no signal	0 of 3	1 of 9
GFWLNSYGIS	VIYSDGRRDFYGDSVK	GRAAGTFSS	4.33	1 of 3	3 of 9
GFTLNSYGIG	VIYSCGRRTFYGDSVK	GRAAGTFGS	3.40	1 of 3	5 of 9
GFTLNSYGIS	VIYSDGRRTFYGDSVK	GRAAGTFCS	3.46	1 of 3	0 of 9
GFTLNSYGIS	VIYSDGRRTFYGDSVK	GRTAGTFNS	0.65	3 of 3	2 of 9
GFTLNSYGIS	LIYSDGRRTFYGDSVM	GRAAGTFSS	4.99	2 of 3	5 of 9
GCTNNSYGIS	VIYSDGRRTFYGDSVK	GRAAGTFGS	3.49	2 of 3	2 of 9
GFTLNSYGIS	VIYSDGRRTFYKDSVK	GRAASTFTS	no signal	0 of 3	0 of 9
GFTLNSYGIS	VIYSDGRRTFYGDSVK	GRLALTFMS	no signal	0 of 3	0 of 9
GFTLMSYGIS	VIYSDGRRTFYGDSVK	QRAAGTFRS	no signal	0 of 3	2 of 9
SFTLNSYGIS	VIYSDGRRHFYGDSVK	GRAAGTFSS	no signal	0 of 3	0 of 9
GFTLNSYGIS	VIYSDGRRTFYGDSVK	GPAAGTFRG	4.57	1 of 3	2 of 9
GFTLNSYGIS	VIYSDGRRTFRGDSVK	GRAAGTFSS	3.55	1 of 3	2 of 9
GFTLNSYGIS	VIMSDGRRTFYGDSVK	GRAAGTFTS	3.88	1 of 3	2 of 9
GFTLNSYGIS	VIYMDGRRYFYGDSVK	GRAAGTFRS	no signal	0 of 3	0 of 9
GFTLNSYGIS	VIYSPMRRTFYGDSVK	GRAAGTFNS	no signal	0 of 3	0 of 9
GFTLNSYGIS	VIYSDGRRTFYGDSPK	GRAAGTFIS	no signal	0 of 3	0 of 9
GFTLNSYGIS	VIASDGRTTFYGDSVK	GRAAGTFES	no signal	0 of 3	0 of 9

The closing 9 entries, repeated:

CDR-H1	CDR-H2	CDR-H3	mean log10 Kd (nM)	seen in	control signals
GFTLMSYGIS	VIYSDGRRTFYGDSVK	QRAAGTFRS	no signal	0 of 3	2 of 9
SFTLNSYGIS	VIYSDGRRHFYGDSVK	GRAAGTFSS	no signal	0 of 3	0 of 9
GFTLNSYGIS	VIYSDGRRTFYGDSVK	GPAAGTFRG	4.57	1 of 3	2 of 9
GFTLNSYGIS	VIYSDGRRTFRGDSVK	GRAAGTFSS	3.55	1 of 3	2 of 9
GFTLNSYGIS	VIMSDGRRTFYGDSVK	GRAAGTFTS	3.88	1 of 3	2 of 9
GFTLNSYGIS	VIYMDGRRYFYGDSVK	GRAAGTFRS	no signal	0 of 3	0 of 9
GFTLNSYGIS	VIYSPMRRTFYGDSVK	GRAAGTFNS	no signal	0 of 3	0 of 9
GFTLNSYGIS	VIYSDGRRTFYGDSPK	GRAAGTFIS	no signal	0 of 3	0 of 9
GFTLNSYGIS	VIASDGRTTFYGDSVK	GRAAGTFES	no signal	0 of 3	0 of 9

Reference: Engelhart et al. 2022, doi:10.1038/s41597-022-01779-4. File: FLAb, binding data.